From patent publication US20240108738A1, “BICYCLIC PEPTIDE LIGANDS SPECIFIC FOR NK CELLS” (Bicycle Tx Limited, priority 2021, published 2024)

Sequences of proteins named here, by UniProt entry; tags and fusion partners are left off. Residues count along the entry.
UniProt P08637, 17-208 F176V: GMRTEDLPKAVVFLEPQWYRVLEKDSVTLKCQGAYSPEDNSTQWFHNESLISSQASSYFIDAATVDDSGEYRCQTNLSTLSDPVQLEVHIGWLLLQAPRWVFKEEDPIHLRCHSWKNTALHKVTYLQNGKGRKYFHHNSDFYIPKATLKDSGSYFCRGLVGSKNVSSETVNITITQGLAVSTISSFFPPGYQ
UniProt P08637, 17-208 limits assumed: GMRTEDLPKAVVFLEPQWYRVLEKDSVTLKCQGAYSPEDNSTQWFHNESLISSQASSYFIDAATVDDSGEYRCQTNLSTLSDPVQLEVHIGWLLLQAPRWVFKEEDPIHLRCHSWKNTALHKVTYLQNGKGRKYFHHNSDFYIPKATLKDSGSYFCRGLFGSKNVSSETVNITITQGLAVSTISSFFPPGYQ

Key:
CD16a (V Variant) = CD16a (V Variant) (Homo sapiens, UniProt P08637, F176V); experiment: FcγRIII (CD16a) SPR (Method A and/or Method B), V variant; format: binding
CD16a (F Variant) = CD16a (F Variant) (Homo sapiens, UniProt P08637); experiment: FcγRIII (CD16a) SPR (Method A and/or Method B), F variant; format: binding

Row | SMILES | Kd (CD16a (V Variant)) | Kd (CD16a (F Variant))
1 | C#CCCC(=O)NCCCC[C@H](NC(=O)[C@H](C)NC(=O)[C@@H]1CSCc2nc3nc(n2)CSC[C@H](NC(=O)[C@@H]2CCCN2C(=O)CNC(=O)[C@H](CC(C)C)NC(=O)[C@H](CCC(=O)O)NC(=O)[C@H](CC(C)C)NC(=O)[C@H](CC(C)C)NC(=O)CNC(=O)[C@H](C(C)C)NC(=O)[C@@H](NC(=O)[C@H](C)N)CSC3)C(=O)N[C@@H](CO)C(=O)N[C@@H](CC(=O)O)C(=O)N[C@@H](CC(C)C)C(=O)N1)C(N)=O [BCY16165, A-(SEQ ID NO: 244)-A-[K(PYA)]] | 3230 nM | 
2 | CC(C)C[C@@H]1NC(=O)CNC(=O)[C@@H]2CCCN2C(=O)[C@@H](NC(=O)[C@H](C)N)CSCc2nc3nc(n2)CSC[C@H](NC(=O)[C@@H]2CCCN2C(=O)CNC(=O)[C@H](CC(C)C)NC(=O)[C@H](CCC(=O)O)NC(=O)[C@H](CCC(=O)O)NC1=O)C(=O)N[C@@H](CO)C(=O)N[C@@H](CC(=O)O)C(=O)N[C@@H](CC(C)C)C(=O)N[C@H](C(=O)N[C@@H](C)C(N)=O)CSC3 [BCY16498, A-(SEQ ID NO: 245)-A] | 2810 nM | 2360 nM
3 | CC(C)C[C@@H]1NC(=O)[C@H](CCC(=O)O)NC(=O)[C@H](CCC(=O)O)NC(=O)[C@H](CC(C)(C)C)NC(=O)CNC(=O)[C@H](C(C)C)NC(=O)[C@@H](NC(=O)[C@H](C)N)CSCc2nc3nc(n2)CSC[C@H](NC(=O)[C@@H]2CCCN2C(=O)CNC1=O)C(=O)N[C@@H](CO)C(=O)N[C@@H](CC(=O)O)C(=O)N[C@@H](CC(C)C)C(=O)N[C@H](C(=O)N[C@@H](C)C(N)=O)CSC3 [BCY16501, A-(SEQ ID NO: 247)-A] | 3230 ± 2510 nM | 
4 | CC(C)C[C@@H]1NC(=O)CNC(=O)[C@H](C(C)C)NC(=O)[C@@H](NC(=O)[C@H](C)N)CSCc2nc3nc(n2)CSC[C@H](NC(=O)[C@@H]2CCCN2C(=O)CNC(=O)[C@H](CC(C)C)NC(=O)[C@H](CCC(=O)O)NC(=O)[C@H](CC2CCC2)NC1=O)C(=O)N[C@@H](CO)C(=O)N[C@@H](CC(=O)O)C(=O)N[C@@H](CC(C)C)C(=O)N[C@H](C(=O)N[C@@H](C)C(N)=O)CSC3 [BCY16509, A-(SEQ ID NO: 254)-A] |  | 2820 nM
5 | CCCC[C@@H]1NC(=O)[C@H](CC(C)C)NC(=O)CNC(=O)[C@H](C(C)C)NC(=O)[C@@H](NC(=O)[C@H](C)N)CSCc2nc3nc(n2)CSC[C@H](NC(=O)[C@@H]2CCCN2C(=O)CNC(=O)[C@H](CC(C)C)NC(=O)[C@H](CCC(=O)O)NC1=O)C(=O)N[C@@H](CO)C(=O)N[C@@H](CC(=O)O)C(=O)N[C@@H](CC(C)C)C(=O)N[C@H](C(=O)N[C@@H](C)C(N)=O)CSC3 [BCY16511, A-(SEQ ID NO: 256)-A] | ≥ 5000 nM | 4020 nM
6 | CC(C)CC[C@@H]1NC(=O)CNC(=O)[C@H](C(C)C)NC(=O)[C@@H](NC(=O)[C@H](C)N)CSCc2nc3nc(n2)CSC[C@H](NC(=O)[C@@H]2CCCN2C(=O)CNC(=O)[C@H](CC(C)C)NC(=O)[C@H](CCC(=O)O)NC(=O)[C@H](CCC(=O)O)NC1=O)C(=O)N[C@@H](CO)C(=O)N[C@@H](CC(=O)O)C(=O)N[C@@H](CC(C)C)C(=O)N[C@H](C(=O)N[C@@H](C)C(N)=O)CSC3 [BCY16527, A-(SEQ ID NO: 262)-A] | > 5000 nM | 
7 | CC(C)CC[C@@H]1NC(=O)[C@H](CC(C)C)NC(=O)CNC(=O)[C@H](C(C)C)NC(=O)[C@@H](NC(=O)[C@H](C)N)CSCc2nc3nc(n2)CSC[C@H](NC(=O)[C@@H]2CCCN2C(=O)CNC(=O)[C@H](CC(C)C)NC(=O)[C@H](CCC(=O)O)NC1=O)C(=O)N[C@@H](CO)C(=O)N[C@@H](CC(=O)O)C(=O)N[C@@H](CC(C)C)C(=O)N[C@H](C(=O)N[C@@H](C)C(N)=O)CSC3 [BCY16528, A-(SEQ ID NO: 263)-A] | > 5000 nM | 
8 | Cc1ccc2c(C[C@@H]3NC(=O)[C@H](CCCNC(=N)N)NC(=O)[C@@H](NC(=O)[C@H](C)N)CSCc4nc5nc(n4)CSC[C@H](NC(=O)[C@@H]4CCCN4C(=O)[C@H](CC(=O)O)NC(=O)[C@H](CCC(=O)O)NC(=O)[C@H](C(C)C)NC(=O)[C@H](CO)NC3=O)C(=O)NCC(=O)N[C@@H](C)C(=O)N[C@@H](Cc3c[nH]c4ccccc34)C(=O)N[C@H](C(=O)N[C@@H](C)C(N)=O)CSC5)c[nH]c2c1 [BCY19046, A-(SEQ ID NO: 194)-A] |  | 1600 nM
9 | CC(C)[C@@H]1NC(=O)[C@H](CO)NC(=O)[C@H](Cc2c[nH]c3cc(Cl)ccc23)NC(=O)[C@H](CCCNC(=N)N)NC(=O)[C@@H](NC(=O)[C@H](C)N)CSCc2nc3nc(n2)CSC[C@H](NC(=O)[C@@H]2CCCN2C(=O)[C@H](CC(=O)O)NC(=O)[C@H](CCC(=O)O)NC1=O)C(=O)NCC(=O)N[C@@H](C)C(=O)N[C@@H](Cc1c[nH]c2ccccc12)C(=O)N[C@H](C(=O)N[C@@H](C)C(N)=O)CSC3 [BCY19050, A-(SEQ ID NO: 197)-A] |  | 2150 nM
10 | COc1cccc2[nH]cc(C[C@@H]3NC(=O)[C@H](C)NC(=O)CNC(=O)[C@@H]4CSCc5nc(nc(n5)CSC[C@@H](C(=O)N[C@@H](C)C(N)=O)NC3=O)CSC[C@H](NC(=O)[C@H](C)N)C(=O)N[C@@H](CCCNC(=N)N)C(=O)N[C@@H](Cc3c[nH]c5ccccc35)C(=O)N[C@@H](CO)C(=O)N[C@@H](C(C)C)C(=O)N[C@@H](CCC(=O)O)C(=O)N[C@@H](CC(=O)O)C(=O)N3CCC[C@H]3C(=O)N4)c12 [BCY19063, A-(SEQ ID NO: 203)-A] |  | > 10000 nM
11 | C[C@H](N)C(=O)N[C@H]1CSCc2nc3nc(n2)CSC[C@H](NC(=O)[C@@H]2CCCN2C(=O)[C@H](CCC(=O)O)NC(=O)[C@H](CO)NC(=O)[C@H](Cc2ccccc2)NC(=O)[C@H](Cc2ccc(F)cc2)NC(=O)[C@H](Cc2c[nH]c4ccccc24)NC(=O)[C@H](CCCNC(=N)N)NC1=O)C(=O)NCC(=O)N[C@@H](C)C(=O)N[C@@H](Cc1c[nH]c2ccccc12)C(=O)N[C@H](C(=O)N[C@@H](C)C(N)=O)CSC3 [BCY20379, A-(SEQ ID NO: 225)-A] | 1430 nM | 
12 | C[C@H](N)C(=O)N[C@H]1CSCc2nc3nc(n2)CSC[C@H](NC(=O)[C@@H]2CCCN2C(=O)[C@H](CCC(=O)O)NC(=O)[C@H](CCO)NC(=O)[C@H](Cc2ccccc2)NC(=O)[C@H](Cc2c[nH]cn2)NC(=O)[C@H](Cc2c[nH]c4ccccc24)NC(=O)[C@H](CCCNC(=N)N)NC1=O)C(=O)NCC(=O)N[C@@H](C)C(=O)N[C@@H](Cc1c[nH]c2ccccc12)C(=O)N[C@H](C(=O)N[C@@H](C)C(N)=O)CSC3 [BCY20388, A-(SEQ ID NO: 232)-A] | 1080 nM | 
13 | C[C@H](N)C(=O)N[C@H]1CSCc2nc3nc(n2)CSC[C@H](NC(=O)[C@@H]2CCCN2C(=O)[C@H](CCCC(=O)O)NC(=O)[C@H](CO)NC(=O)[C@H](Cc2ccccc2)NC(=O)[C@H](Cc2c[nH]cn2)NC(=O)[C@H](Cc2c[nH]c4ccccc24)NC(=O)[C@H](CCCNC(=N)N)NC1=O)C(=O)NCC(=O)N[C@@H](C)C(=O)N[C@@H](Cc1c[nH]c2ccccc12)C(=O)N[C@H](C(=O)N[C@@H](C)C(N)=O)CSC3 [BCY20390, A-(SEQ ID NO: 234)-A] |  | > 10000 nM
14 | C[C@H](N)C(=O)N[C@H]1CSCc2nc3nc(n2)CSC[C@H](NC(=O)[C@@H]2CCN2C(=O)[C@H](CCC(=O)O)NC(=O)[C@H](CO)NC(=O)[C@H](Cc2ccccc2)NC(=O)[C@H](Cc2ccc(O)cc2)NC(=O)[C@H](Cc2c[nH]c4ccccc24)NC(=O)[C@H](CCCNC(=N)N)NC1=O)C(=O)N[C@H](C)C(=O)N[C@@H](C)C(=O)N[C@@H](Cc1c[nH]c2ccccc12)C(=O)N[C@H](C(=O)N[C@@H](C)C(N)=O)CSC3 [BCY20394, A-(SEQ ID NO: 236)-A] | 1000 nM | 
